This passage reports decrease in propofol required to block the laryngoscopy response results from patent publication US7725174B2 (priority 2006, dated 2010).

This experiment relates to human volunteer subjects. Put plainly: Propofol/remifentanil drug interaction study, stepwise target concentrations until no response to laryngoscopy. Particulars: 2nd trial, propofol combined with remifentanil vs propofol alone, one study subject (FIG. 4).

Take `CC(C)c1cccc(C(C)C)c1O` [propofol]: the decrease in propofol required to block the laryngoscopy response turned out to be 6 ×.
